{"source": "paper PMC8197769", "about": "(Progress in retinal and eye research, 2020)", "origin": "cited, not measured here", "test_system": "patients with paroxysmal nocturnal hemoglobinuria", "conditions": "human, in vivo", "data": [{"substance": "eculizumab: monoclonal antibody that binds C5 and blocks its proteolytic activation", "values": [{"measurement": "safety during prolonged and systemic clinical intervention", "result": "acceptable safety profiles"}]}]}
